Results from patent US12286404B2, “Solid state forms of Mitapivat and process for preparation thereof” (TEVA PHARMACEUTICALS INTERNATIONAL GMBH, priority 2020, dated 2025).

Assays:
[1] = at different pH's
[2] = Storage stability under humidity/temperature conditions; format: physicochemical; conditions: for at least one month
Hygroscopicity = format: physicochemical
[3] = Stability under stress conditions (heating, grinding, high pressure); format: physicochemical; conditions: grinding and high pressure

Row | Substance | solubility compared to Mitapivat hemisulfate [1] | stability under regular conditions ([2]; 60% RH at RT) | stability under accelerated conditions ([2]; 75% RH at 40° C.) | hygroscopicity (Hygroscopicity) | stability under stress conditions [3]
1 | Mitapivat hemisulfate:ascorbic acid | improved solubility |  |  |  | 
2 | Mitapivat hemisulfate:adipic acid | improved solubility | polymorphically and chemically stable | polymorphically and chemically stable | non-hygroscopic | stable
